Measurements from US20070172933A1, “Thermally stable amidases” (priority 2003, published 2007).

Test system: amidase
Assay: Substrate specificity of the isolated amidase (hydrolysis assay)
Assay type: biochemical, Pseudonocardia thermophila
Experimental: To carry out the hydrolysis assay, where not mentioned otherwise, use was made of a 5 mM benzamide solution in 500 μl of a 60 mM K-Na phosphate buffer, pH 7.2. The enzymatic reaction proceeded for one hour at 70° C. with addition of 5 μg of the enzyme. The reaction was stopped by cooling the reaction solution on ice. […] One unit (U) of amidase activity is defined as the amount of enzyme which catalyzes the formation of 1 μmol of benzoic acid per minute.
The substrate specificity of the amidase was tested at three different temperatures taking into account the substrate used in each case. For hydrolysis of amino acid amides, the reaction mixture was reacted for 3 h at 30° C., in the case of the aliphatic and cyclic amides 1 h at 50° C., and for aromatic amide substrates 1 h at 70° C. The enzymatic activity was then determined as described above. The control used was each batch without enzyme.

SMILES: NC(=O)c1ccc(O)cc1 [p-hydroxybenzamide]
- Specific activity: 12.1 µmol/min/mg
